Earlier results in paper PMC3367028.

Amino acid sequences for entries named in this document (tags omitted). Residues count along the entry.
UniProt P04233, 73-296: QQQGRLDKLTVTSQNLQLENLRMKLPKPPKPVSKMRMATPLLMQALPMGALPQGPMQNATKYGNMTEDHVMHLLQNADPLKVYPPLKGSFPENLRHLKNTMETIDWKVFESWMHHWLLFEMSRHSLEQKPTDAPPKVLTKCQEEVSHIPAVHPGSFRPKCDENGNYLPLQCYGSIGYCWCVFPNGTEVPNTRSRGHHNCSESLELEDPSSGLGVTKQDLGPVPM
UniProt P14174, 2-115: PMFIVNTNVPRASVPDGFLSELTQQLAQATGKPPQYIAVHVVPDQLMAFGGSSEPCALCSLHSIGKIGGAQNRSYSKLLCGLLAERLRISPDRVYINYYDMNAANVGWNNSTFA

Biological target: CD74 (Homo sapiens) (UniProt P04233)
Assay: SPR

Substance: MIF (from UniProt P14174)
- Kd: 1.54 nM
